## Reported logP (octanol/water) values for industrial, environmental and drug-like chemicals

Values as listed in the OPERA 2.9 repository of K. Mansouri.

The octanol-water partition coefficient is given as log10; larger values mean a more lipophilic compound. "–" marks a cell with nothing listed here. The databases behind each value are named after "via".

| SMILES | name | log Kow | via |
|---|---|---|---|
| CCOCCOCCOC(C)=O | 2-(2-Ethoxyethoxy)ethyl acetate | 0.094 | eChemPortal |
| CCOc1ccccc1OCCN[C@H](C)Cc1ccc(OC)c(S(N)(=O)=O)c1 | Tamsulosin | 2.3 | PubChem |
| C(=Cc1ccc(-c2nc3ccccc3o2)cc1)c1ccc(-c2nc3ccccc3o2)cc1 | 4,4'-Bis(2-benzoxazolyl)stilbene | 5.499 | eChemPortal |
| Cc1cc(C)c(C#N)c(O)n1 | 3-Cyano-4,6-dimethyl-2-hydroxypyridine | 2.03 | OCHEM |
| CSCC[C@H](NC(C)=O)C(=O)O | L-Methionine, N-acetyl- | -0.03 | PubChem |
| CC(=O)C1=C(C)[C@@H]2C[C@@]3(C1)[C@H](C)CC[C@H]3C2(C)C | Acetylcedrene | 5.75 | OCHEM |
| CC(C)(C)c1ccc(O)c(O)c1 | 4-tert-Butylcatechol | 2.86 | eChemPortal |
| S=C([S-])N(Cc1ccccc1)Cc1ccccc1.[Na+] | Carbamodithioic acid, bis(phenylmethyl)-, sodium salt | -0.3 | eChemPortal |
| Cc1c(Cl)cc(C(C)C)cc1Cl | 1,3-Dichloro-2-methyl-5-(propan-2-yl)benzene | 5.5 | OCHEM |
| Nc1cc(N2CCCC2)nc(N)[n+]1[O-] | Pyrrolidinyl diaminopyrimidine oxide | 0.84 | OCHEM |
| COc1nc(Nc2ccccc2)nc(Nc2ccc(/C=C/c3ccc(Nc4nc(Nc5ccccc5)nc(OC)n4)cc3S(=O)(=O)[O-])c(S(=O)(=O)[O-])c2)n1.[Na+].[Na+] | C.I. Fluorescent Brightener 213 | -0.979 | eChemPortal |
| Cc1cc(/N=N/c2ccc(O)c(C(=O)[O-])c2)c(OCCCS(=O)(=O)[O-])cc1/N=N/c1ccc([N+](=O)[O-])cc1S(=O)(=O)[O-].[Na+].[Na+].[Na+] | – | -4.4 | eChemPortal |
| CCn1c(O)c(/N=N/c2cc(Nc3nc(Cl)nc(Nc4cccc(S(=O)(=O)[O-])c4)n3)ccc2S(=O)(=O)[O-])c(C)c(CS(=O)(=O)[O-])c1=O.[Na+].[Na+].[Na+] | – | -3.49 | eChemPortal |
| C=C(CO)C1CC=C(C)CC1 (configuration not stated) | 3-Cyclohexene-1-ethanol, 4-methyl-.beta.-methylene- | 3.17 | OCHEM |
| O=P(O)(O)C(O)(Cc1cccnc1)P(=O)(O)O | Risedronic acid | -3.6 | PubChem |
| O=C([O-])CN(CCCN(C(=O)[O-])C(=O)[O-])C(=O)[O-].[Fe+3].[NH4+] | Ammonium 1,3-propylenediaminetetraacetatoferrate | -2.5 | eChemPortal |
| CNc1ccc(O)cc1.CNc1ccc(O)cc1.O=S(=O)(O)O | N-Methyl-p-aminophenol sulfate | 0.79 | eChemPortal |
| O=C(O)[C@@H]1C[C@@H](O)CN1 | Hydroxyproline | -3.17 | OCHEM, PubChem |
| Clc1cnc2ccccc2n1 | 2-Chloroquinoxaline | 2.23 | OCHEM |
| CC(C)CCCCCCCOCCCNCCCN | 1,3-Propanediamine, N-[3-(isodecyloxy)propyl]- | 2.7 | eChemPortal |
| C=CCNCC | N-Ethylprop-2-en-1-amine | 0.81 | OCHEM |
| Cn1c(N)cc(=O)n(C)c1=O | – | -0.42 | eChemPortal |
| Clc1cc(-c2c(Cl)c(Cl)cc(Cl)c2Cl)cc(Cl)c1Cl | 2,3,3',4',5,5',6-Heptachlorobiphenyl | 7.52 | OCHEM |
| O=[N+]([O-])c1ccc2cn[nH]c2c1 | 1H-Indazole, 6-nitro- | 2.06 | OCHEM |
| [Br-].c1ccc(C[n+]2ccccc2)cc1 | 1-Benzylpyridin-1-ium bromide | -2.62 | OCHEM |
| CCCCC(F)(F)C(=O)CC[C@H]1[C@H](O)CC(=O)[C@@H]1CCCCCCC(=O)O | – | 4.3 | PubChem |
| CCN[P+]([O-])(OCC)O/N=C(/C#N)c1ccc(OC)cc1 (stereo partly drawn) | – | 2.39 | OCHEM |
| CN(C)CCOc1ccc(/C(=C(/CCCl)c2ccccc2)c2ccccc2)cc1 | Toremifene | 6.8 | PubChem |
| CCCCCCCCc1ccc(N)cc1 | 4-Octylaniline | 5.03 | OCHEM |
| OCCCCCc1ccccc1 | Benzenepentanol | 2.89 | OCHEM |
| CC(C)(C)c1ccc(C(O)CCCN2CCC(C(O)(c3ccccc3)c3ccccc3)CC2)cc1 (configuration not stated) | Terfenadine | 7.1 | PubChem |
| Nc1ccc(Cc2ccc(N)c(Cl)c2Cl)c(Cl)c1Cl | Benzenamine, 4,4'-methylenebis(2,3-dichloro- | 5.39 | OCHEM |
| CC(C)NCC(O)c1cc(O)cc(O)c1 (configuration not stated) | Metaproterenol | 1 | PubChem |
| CC(=O)N(C[C@@H](O)CO)c1c(I)c(C(=O)NC(CO)CO)c(I)c(N(C(C)=O)[C@@H](O)CO)c1I | – | -2.8 | OCHEM |
| COc1cc(/N=N/c2cccc(S(=O)(=O)O)c2)ccc1NC(=O)Nc1ccc(/N=N/c2cccc(S(=O)(=O)O)c2)cc1OC.OCCNCCO.OCCNCCO | – | -4.06 | eChemPortal |
| C#CCOc1cc(-n2nc3n(c2=O)CCCC3)c(Cl)cc1Cl | Azafenidin | 2.7 | OCHEM |

Extract of 6 entries:

| SMILES | name | log Kow | via |
|---|---|---|---|
| CC(C)CCCCCCCOCCCNCCCN | 1,3-Propanediamine, N-[3-(isodecyloxy)propyl]- | 2.7 | eChemPortal |
| Nc1ccc(Cc2ccc(N)c(Cl)c2Cl)c(Cl)c1Cl | Benzenamine, 4,4'-methylenebis(2,3-dichloro- | 5.39 | OCHEM |
| Cc1cc(/N=N/c2ccc(O)c(C(=O)[O-])c2)c(OCCCS(=O)(=O)[O-])cc1/N=N/c1ccc([N+](=O)[O-])cc1S(=O)(=O)[O-].[Na+].[Na+].[Na+] | – | -4.4 | eChemPortal |
| O=C(O)[C@@H]1C[C@@H](O)CN1 | Hydroxyproline | -3.17 | OCHEM, PubChem |
| CC(=O)C1=C(C)[C@@H]2C[C@@]3(C1)[C@H](C)CC[C@H]3C2(C)C | Acetylcedrene | 5.75 | OCHEM |
| O=P(O)(O)C(O)(Cc1cccnc1)P(=O)(O)O | Risedronic acid | -3.6 | PubChem |

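OPERA's authors assembled the values from existing databases and did not measure them anew. A listed value is a point estimate from one report or more. How each value was measured is not recorded, so precision varies. A value may pool stereoisomers or salt forms, and the file does not say which form was measured. Some upstream entries may be estimates or bounds without being marked so.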